Drawing on PubChem BioAssay AID624268 (The Scripps Research Institute Molecular Screening Center, 2012), this text covers inhibition for 26 compounds.

The entries are a selection whose mix differs from that of the whole data set. Some tests of the compounds listed are not included; inactive here does not mean inactive elsewhere. Active and inactive are the calls of the source.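 Rule for the calls: active = inhibition above a per-plate cutoff of the control wells' mean inhibition plus 3 SD (cut at about 5.5% in these data); inactive = the rest.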

The test system of the experiment is methionyl-tRNA synthetase (Trypanosoma brucei brucei). The experiment in a line: T. brucei MetRS inhibitors, primary screen, biochemical, luminescence (AID 624268).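 Note: 0% = DMSO wells median and 100% = median of wells with control inhibitor compound.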 Conditions: purified T. brucei MetRS, ATP depletion, Kinase-Glo luminescence; at 11.9 µM; stronger effect = higher value. The procedure, abridged: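 Material: parasite MetRS enzyme / Replication: singlicate, one well per compound / Signal: luminescence of leftover ATP / Schedule: 2 h aminoacylation at 25 °C after 15 min preincubation / Medium: HEPES-MgCl2-KCl buffer plus DTT, spermine, BSA, pyrophosphatase / Doses: 11.9 µM single point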
Background: Kinase-Glo reads ATP consumption through a luciferase reaction.
As usually defined, the inhibition is the relative decrease from the control value, in per cent. Turning to `COc1ccc(Br)c(C(=O)NCC2(N3CCCCC3)CCCCC2)c1`, the inhibition is inactive: -0.4%.

As to `C=C(C)C#CC(O)(C(=O)OC1CCN(C)CC1)c1ccccc1` (stereo unspecified), the inhibition was inactive: -0.19%.

Regarding `CN(C)c1cccc(C(=O)NCC2(N(C)C)CCCCC2)c1`, the inhibition was inactive: -1.11%.

In the case of `O=C(OCCN1CCCC1)C(O)(c1ccccc1)c1ccccc1`, the inhibition is inactive: -0.3%.

In the case of `CC(C)Oc1ccc(C(=O)NCC2(N(C)C)CCCCC2)cc1`, the inhibition was inactive: -0.38%.

`O=C(OC1CN2CCC1CC2)C(CO)(c1ccccc1)c1ccccc1` (stereo unspecified): the inhibition is inactive: -1%.

As for `COc1ccc(Cl)cc1C(=O)NCC1(N(C)C)CCCCC1`, the inhibition is inactive: 0.06%.

As to `COc1cccc(C(=O)NCC2(N3CCCCC3)CCCCC2)c1`, the inhibition was inactive: -0.21%.

In the case of `O=C(NCC1(N2CCCCC2)CCCCC1)c1cccc(Cl)c1`, the inhibition was inactive: -0.89%.

In the case of `CN(C)C1(CNC(=O)c2ccc(Br)cc2)CCCCC1`, the inhibition was inactive: -0.32%.

As for `COc1cc(C(=O)NCC2(N(C)C)CCCCC2)c([N+](=O)[O-])cc1OC`, the inhibition was inactive: -0.54%.

As for `O=C(NCC1(N2CCCCC2)CCCCC1)c1cc(F)c(F)cc1Cl`, the inhibition was inactive: -0.33%.

`C=CCN1CCN(CCOC(=O)C(O)(c2ccccc2)c2ccccc2)CC1`: the inhibition is inactive: 0.27%.

As for `O=C(NCC1(N2CCCCC2)CCCCC1)c1cccc(Br)c1`, the inhibition was inactive: 0.28%.

Turning to `CCN1CCCC(OC(=O)C2(O)c3ccccc3C=Cc3ccccc32)C1` (stereo unspecified), the inhibition was inactive: -0.96%.

For `Cc1cc(C(=O)NCC2(N3CCCCC3)CCCCC2)ccc1[N+](=O)[O-]`, the inhibition was inactive: -0.31%.

Take `COc1ccc(C(=O)NCC2(N(C)C)CCCCC2)cc1`: the inhibition is inactive: 1.27%.

For the compound `CN(C)c1ccc(C(=O)NCC2(N(C)C)CCCCC2)cc1`, the inhibition was inactive: -0.04%.

`CN(C)C1CCCC1OC(=O)C(O)(c1ccccc1)c1ccccc1` (stereo unspecified): the inhibition is inactive: 0.45%.

With `Cc1ccccc1C(=O)NCC1(N2CCCCC2)CCCCC1`, the inhibition is inactive: -0.07%.

In the case of `CC(C)N1C(=O)CC2(CCN(CCOC(=O)C(O)(c3ccccc3)c3ccccc3)CC2)C1=O`, the inhibition is inactive: -0.77%.

As for `COc1cc(SC)ccc1C(=O)NCC1(N(C)C)CCCCC1`, the inhibition is inactive: -1.7%.

For the compound `CCN(CC)CC(C)C(C)OC(=O)C(O)(c1ccccc1)c1ccccc1` (stereo unspecified), the inhibition is inactive: -0.14%.

Turning to `Cc1ccc(C(=O)NCC2(N3CCCCC3)CCCCC2)cc1`, the inhibition is inactive: -0.31%.

Regarding `O=C(NCC1(N2CCCCC2)CCCCC1)c1cc([N+](=O)[O-])ccc1Cl`, the inhibition is inactive: -0.16%.

On to `CN1[C@@H]2CC[C@H]1CC(OC(=O)C(O)(c1ccccc1)c1ccccc1)C2` (stereo partly specified), for which the inhibition was inactive: -0.51%.
